This note sets out measurements from patent publication US20260022143A1, “Cyclic Peptide Inhibitors of IL-23” (JANSSEN PHARMACEUTICA NV, priority 2022, published 2026).

The assay has as its target T1, IL-23R (Homo sapiens, UniProt Q5VWK5).
T1 construct: host or cells: HEK293
T1 sequence (Q5VWK5 24-629): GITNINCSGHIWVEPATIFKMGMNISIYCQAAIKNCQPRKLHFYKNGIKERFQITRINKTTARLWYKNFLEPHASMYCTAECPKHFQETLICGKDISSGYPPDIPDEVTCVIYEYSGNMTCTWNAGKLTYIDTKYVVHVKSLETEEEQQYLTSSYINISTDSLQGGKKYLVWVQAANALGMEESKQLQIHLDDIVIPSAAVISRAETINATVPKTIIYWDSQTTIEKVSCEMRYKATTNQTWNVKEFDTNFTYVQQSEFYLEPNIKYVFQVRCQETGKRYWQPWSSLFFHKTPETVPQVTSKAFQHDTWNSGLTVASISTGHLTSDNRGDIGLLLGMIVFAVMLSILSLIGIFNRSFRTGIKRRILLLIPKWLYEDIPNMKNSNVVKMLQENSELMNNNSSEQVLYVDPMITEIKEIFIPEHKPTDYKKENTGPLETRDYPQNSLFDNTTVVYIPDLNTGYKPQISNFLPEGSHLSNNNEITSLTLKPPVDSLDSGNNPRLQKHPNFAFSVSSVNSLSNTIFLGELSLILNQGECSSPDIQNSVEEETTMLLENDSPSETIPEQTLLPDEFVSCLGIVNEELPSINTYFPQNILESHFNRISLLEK
The assay is described as follows: IL23R Reporter Assay. In kind it is cell-based. The note with it: HEK293 cells containing IL-23R, IL-12RP1 and STAT-inducible firefly luciferase reporter; 10 ng/mL IL-23 (EC90); 5 h at 37° C.; read-out: IL23R Reporter Assay. In general terms: In a reporter assay the amount or activity of a reporter protein is the signal.
As for `CC(=O)NCCCC[C@@H]1NC(=O)[C@H](Cc2c[nH]c3c(C)cccc23)NC(=O)[C@H]([C@@H](C)O)NC(=O)[C@H](CC(N)=O)NC(=O)[C@@H](NC(=O)[C@@H](CCCNC(=N)N)NC(=O)CCOCCOCC[N+](C)(C)C)C(C)(C)SSC(C)(C)[C@@H](C(=O)N[C@@H](Cc2ccc(OCCNC(=N)N)cc2)C(=O)N[C@@H](Cc2ccc3ccccc3c2)C(=O)NC2(C(=O)N[C@@H](CCC(=O)O)C(=O)N[C@@H](CC(N)=O)C(=O)N[C@@H](Cc3cncc(C)c3)C(=O)N(C)CC(N)=O)CCOCC2)NC1=O` [compound 508, cPEG3aCO-r-Pen(3)-N-T-7MeW-K(Ac)-Pen(3)-AEF(G)-2Nal-THP-E-N-5MePyridinAla-Sar-CONH2], the IC50 is 2.9 nM.

As to `CC(=O)N[C@H](CCCC[N+](C)(C)C)C(=O)N[C@@H]1C(=O)N[C@@H](CC(=O)N(C)C)C(=O)N[C@@H]([C@@H](C)O)C(=O)N[C@@H](Cc2c[nH]c3c(C)cccc23)C(=O)N[C@@H](CCCCN(C)C(C)=O)C(=O)N[C@H](C(=O)N[C@@H](Cc2ccc(OCCOCCOCC[N+](C)(C)C)cc2)C(=O)N[C@@H](Cc2ccc3ccccc3c2)C(=O)NC2(C(=O)N[C@@H](CCCCN(C)C(C)=O)C(=O)N[C@@H](CC(N)=O)C(=O)N[C@@H](Cc3cccnc3)C(=O)N(C)CC(=O)N(C)C)CCOCC2)C(C)(C)SSC1(C)C` [compound 216, MeCO-k(Me)3-Pen(3)-N(N(Me)2)-T-7MeW-K(NMeAc)-Pen(3)-APEG3F-2Nal-THP-K(NMeAc)-N-3Pya-Sar-CON(Me)2], the IC50 was 2.9 nM.

On to `CC(=O)N(C)CCCC[C@@H]1NC(=O)[C@H](Cc2c[nH]c3c(C)cccc23)NC(=O)[C@H]([C@@H](C)O)NC(=O)[C@H](CC(C)C)NC(=O)[C@@H](NC(=O)CCOCCOCC[N+](C)(C)C)C(C)(C)SSC(C)(C)[C@@H](C(=O)N[C@@H](Cc2ccc(OCCCCC[N+](C)(C)C)cc2)C(=O)N[C@@H](Cc2ccc3ccccc3c2)C(=O)NC2(C(=O)N[C@@H](CCCCN(C)C(C)=O)C(=O)N[C@@H](CC(N)=O)C(=O)N[C@@H](Cc3cccnc3)C(=O)N(C)CC(=O)N(C)C)CCOCC2)NC1=O` [compound 495, cPEG3aCO-Pen(3)-1-T-7MeW-K(NMeAc)-Pen(3)-TMAPF-2Nal-THP-K(NMeAc)-N-3Pya-Sar-CON(Me)2], for which the IC50 is 3.6 nM.

As to `CC(=O)NCCCC[C@@H]1NC(=O)[C@H](Cc2c[nH]c3c(C)cccc23)NC(=O)[C@H]([C@@H](C)O)NC(=O)[C@H](CC(N)=O)NC(=O)[C@@H](NC(=O)CCCCC[N+](C)(C)C)C(C)(C)SSC(C)(C)[C@@H](C(=O)N[C@@H](Cc2ccc(OCCN)cc2)C(=O)N[C@@H](Cc2ccc3ccccc3c2)C(=O)NC2(C(=O)N[C@@H](CNC(C)=O)C(=O)N[C@@H](CC(N)=O)C(=O)N[C@@H](Cc3cccnc3)C(=O)N(C)CC(N)=O)CCOCC2)NC1=O` [compound 99], the IC50 was determined as 3.9 nM.

On to `CC(=O)NCCCC[C@@H]1NC(=O)[C@H](Cc2c[nH]c3c(-c4cccc(NC(C)=O)c4)cccc23)NC(=O)[C@H]([C@@H](C)O)NC(=O)[C@H](CC(N)=O)NC(=O)[C@@H](NC(=O)[C@@H](CCCC[N+](C)(C)C)NC(C)=O)C(C)(C)SSC(C)(C)[C@@H](C(=O)N[C@@H](Cc2ccc(OCCNC(=N)N)cc2)C(=O)N[C@@H](Cc2ccc3ccccc3c2)C(=O)NC2(C(=O)N[C@@H](CCC(=O)O)C(=O)N[C@@H](CC(N)=O)C(=O)N[C@@H](Cc3cncc(C)c3)C(=O)N(C)CC(N)=O)CCOCC2)NC1=O` [compound 480, MeCO-k(Me)3-Pen(3)-N-T-7(3NAcPh)W-K(Ac)-Pen(3)-AEF(G)-2Nal-THP-E-N-5MePyridinAla-Sar-CONH2], for which the IC50 is 3.6 nM.

Take `COCC[N+](C)(C)CCCCc1cn(-c2ccc(C[C@H](NC(=O)[C@H]3NC(=O)[C@H](CCCCN(C)C(C)=O)NC(=O)[C@H](Cc4c[nH]c5c(C)cccc45)NC(=O)[C@H]([C@@H](C)O)NC(=O)[C@H](CC(=O)N(C)C)NC(=O)[C@@H](NC(=O)CCOCCOCC[N+](C)(C)C)C(C)(C)SSC3(C)C)C(=O)N[C@@H](Cc3ccc4ccccc4c3)C(=O)NC3(C(=O)N[C@@H](CCCCN(C)C(C)=O)C(=O)N[C@@H](CC(N)=O)C(=O)N[C@@H](Cc4cccnc4)C(=O)N(C)CC(=O)N(C)C)CCOCC3)cc2)nn1` [compound 337, cPEG3aCO-Pen(3)-N(N(Me)2)-T-7MeW-K(NMeAc)-Pen(3)-F(4TzlDMA4mPEG)-2Nal-THP-K(NMeAc)-N-3Pya-Sar-CON(Me)2]: the IC50 amounted to 1.9 nM.

For `COCc1cn(-c2ccc(C[C@H](NC(=O)[C@H]3NC(=O)[C@H](CCCCN(C)C(C)=O)NC(=O)[C@H](Cc4c[nH]c5c(C)cccc45)NC(=O)[C@H]([C@@H](C)O)NC(=O)[C@H](CC(=O)N(C)C)NC(=O)[C@@H](NC(=O)CCOCCOCC[N+](C)(C)C)C(C)(C)SSC3(C)C)C(=O)N[C@@H](Cc3ccc4ccccc4c3)C(=O)NC3(C(=O)N[C@@H](CCCCN(C)C(C)=O)C(=O)N[C@@H](CC(N)=O)C(=O)N[C@@H](Cc4cccnc4)C(=O)N(C)CC(=O)N(C)C)CCOCC3)cc2)nn1` [compound 303, cPEG3aCO-Pen(3)-N(N(Me)2)-T-7MeW-K(NMeAc)-Pen(3)-F(4TzlMME)-2Nal-THP-K(NMeAc)-N-3Pya-Sar-CON(Me)2], the IC50 is 3.6 nM.

Consider `CC(=O)NCCCC[C@@H]1NC(=O)[C@H](Cc2c[nH]c3c(C)cccc23)NC(=O)[C@H]([C@@H](C)O)NC(=O)[C@H](CC(N)=O)NC(=O)[C@@H](NC(=O)C(F)(F)F)C(C)(C)SSC(C)(C)[C@@H](C(=O)N[C@@H](Cc2ccc(OC(F)F)cc2)C(=O)N[C@@H](Cc2ccc3ccccc3c2)C(=O)NC2(C(=O)N[C@@H](CCCCNC(C)=O)C(=O)N[C@@H](CC(N)=O)C(=O)N[C@@H](Cc3cccnc3)C(=O)N(C)CC(N)=O)CCOCC2)NC1=O` [compound 54], for which the IC50 was 5.3 nM.

For the compound `CC(=O)N(C)CCCC[C@H](NC(=O)C1(NC(=O)[C@H](Cc2ccc3ccccc3c2)NC(=O)[C@H](Cc2ccc(OCCCCC[N+](C)(C)C)cc2)NC(=O)[C@H]2NC(=O)[C@H](CCC(=O)N(C)C)NC(=O)[C@H](Cc3c[nH]c4c(C)cccc34)NC(=O)[C@H]([C@@H](C)O)NC(=O)[C@H](CC(=O)N(C)C)NC(=O)[C@@H](NC(=O)CCOCCOCC[N+](C)(C)C)C(C)(C)SSC2(C)C)CCOCC1)C(=O)N[C@@H](CC(N)=O)C(=O)N[C@@H](Cc1cccnc1)C(=O)N(C)CC(=O)N(C)C` [compound 312, cPEG3aCO-Pen(3)-N(N(Me)2)-T-7MeW-Q(N(Me)2)-Pen(3)-TMAPF-2Nal-THP-K(NMeAC)-N-3Pya-Sar-CON(Me)2], the IC50 is 1.1 nM.

Take `CC(=O)NCCCC[C@@H]1NC(=O)[C@H](Cc2c[nH]c3c(C)cccc23)NC(=O)[C@H]([C@@H](C)O)NC(=O)[C@H](CC(N)=O)NC(=O)[C@@H](NC(C)=O)C(C)(C)SSC(C)(C)[C@@H](C(=O)N[C@@H](Cc2ccc(OCCCCCCCC[N+](C)(C)C)cc2)C(=O)N[C@@H](Cc2ccc3ccccc3c2)C(=O)NC2(C(=O)N[C@@H](CCC(=O)O)C(=O)N[C@@H](CC(N)=O)C(=O)N[C@@H](Cc3cccnc3)C(=O)N(C)CC(N)=O)CCOCC2)NC1=O` [compound 457]: the IC50 was 1.3 nM.
